System: NMDA receptor
Assay: Electrophysiology of hippocampus's pyramidal cell: NMDA-induced current
Type: cell-based
Conditions: perfusion alone at 200 μM

Structure (SMILES): Nc1ccc(CN2CCN(CC(=O)c3ccccc3)CC2)cc1 [IV-12, N^1-(4-aminobenzyl)-N^4-phenacyl piperazine]
- Effect on electric current of resting membrane: did not affect

From patent US7332495B2 (priority 2002, dated 2008)
